Tested on: MT4
Assay: Cytotoxicity against human MT4 cells after 5 days by MTT assay
Assay type: cell-based
Details: mt4, 120 h
How it was run: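 MT-4 cells in RPMI 1640 with 10% heat-inactivated FCS, 2 mM L-glutamine, 0.1% bicarbonate and gentamicin, seeded at 6 × 10⁵ cells/mL final with virus or mock infection. Viability read by MTT after 5 days at 540 and 690 nm, using the median OD of three wells. CC50 is 50% loss of mock-infected OD540. EC50 is 50% inhibition of virus-induced CPE. SI = CC50/EC50. Mean ± SD of ≥2 experiments.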

O=[N+]([O-])c1ccc(-[n+]2ccc(-c3cc[n+](-c4ccc([N+](=O)[O-])cc4[N+](=O)[O-])cc3)cc2)c([N+](=O)[O-])c1
CC50: 107 µM
